# AlphaSeq binding of Ab-91 heavy chain variants to a spike HR2 peptide

Source: Engelhart et al. 2022 (doi:10.1038/s41597-022-01779-4), MIT Lincoln Laboratory and A-Alpha Bio; data file from the FLAb repository.

The target is the same throughout: PDVDLGDISGINAS, from the HR2 region of SARS-CoV-2 spike.

Each scFv is VL, a (GGGGS)3 linker, VH, as in the parent Ab-91, and differs from it in the CDRs of the heavy chain only.
VL: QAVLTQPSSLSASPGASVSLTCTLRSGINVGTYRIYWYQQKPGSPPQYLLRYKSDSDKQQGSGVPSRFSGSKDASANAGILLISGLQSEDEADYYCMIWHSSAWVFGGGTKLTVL
VH: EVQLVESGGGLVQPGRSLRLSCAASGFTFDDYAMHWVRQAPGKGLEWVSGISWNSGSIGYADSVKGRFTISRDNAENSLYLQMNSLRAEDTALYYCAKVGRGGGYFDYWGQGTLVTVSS

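The parent was found by panning a naive human phage display library on the peptide. Library AAYL51 holds single substitutions and randomly drawn double and triple substitutions in the CDRs. Affinity was read by AlphaSeq, a pooled yeast mating assay with surface-displayed partners. Mating (16 h, 30 °C) was followed by selection of diploids and sequencing of their barcodes. Read counts were normalised to the haploid input and turned into Kd by a linear fit to BCL2-family pairs of known affinity, for each replicate. There are three technical replicates.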

Changes read parent residue, position, new residue, counted from the first residue of the VH shown. Numbers give log10(Kd / nM), so 0 is 1 nM and 3 is 1 µM. Smaller is tighter. A mean of the replicates is given; it leaves out those without a signal. A pair that was not seen in any replicate is written "no signal"; this usually means weak binding, but a binder can also be missed. Empty control strains, which show no peptide, gave a signal in 21% of pairings with library AAYL51; the median was 4.54 and 95% of these signals were weaker than 3.26. No background was subtracted.

| changes | log10 Kd (nM), mean | replicates with signal |
|---|---|---|
| D31E/V64L/Y105I | no signal | 0 of 3 |
| D107C/Y108C | 1.37 | 3 of 3 |
| H35Y/W53A/I58H | no signal | 0 of 3 |
| T28P/S55K/G100D | 3.54 | 2 of 3 |
| Y60G/G103S | 4.52 | 1 of 3 |
| F27C/I58L/Y60D | 4.69 | 1 of 3 |
| Y60R/D62M/K65H | no signal | 0 of 3 |
| F27E/D62Q/F106V | 3.34 | 1 of 3 |
| D31I/A33D/S57T | 5.01 | 2 of 3 |
| T28G/G104S/D107I | 3.53 | 3 of 3 |
| G50D/N54K/Y105T | 4.71 | 1 of 3 |
| M34F/S55L | 4.64 | 2 of 3 |
| D30C/H35Y/S63H | no signal | 0 of 3 |
| T28N/G50M/D107I | no signal | 0 of 3 |
| G26H/D31C/S63G | no signal | 0 of 3 |
| D31L/S57R/Y60H | no signal | 0 of 3 |
| D62M/D107Q | 4.63 | 3 of 3 |
| G26V/V99L/G102S | 4.99 | 2 of 3 |
| G26M/V64M/G100N | 4.13 | 1 of 3 |
| R101L/G103F | 5.58 | 2 of 3 |
| F29E/I58L/Y105W | 4.11 | 1 of 3 |
| F29Y/I51H/W53A | no signal | 0 of 3 |
| T28R/G59S/R101F | 5.18 | 3 of 3 |
| G59H/A61R/D107H | 3.25 | 1 of 3 |
| H35R/V64D/G102C | no signal | 0 of 3 |
| A33M/M34P/R101H | 4.98 | 3 of 3 |
| W53C/G56R/K65M | 4.14 | 1 of 3 |
| S57F/K65C/D107C | no signal | 0 of 3 |
| D30S/W53V/K65I | no signal | 0 of 3 |
| N54T/D62S/Y108V | 2.51 | 3 of 3 |
| Y60H/V99F/D107V | 4.72 | 2 of 3 |
| D31E/M34H/G104Y | 3.80 | 1 of 3 |
| D30C/G100D/R101Q | 3.55 | 1 of 3 |
| M34I/S55W/Y60F | no signal | 0 of 3 |
| Y32C/G50W/K65D | 4.83 | 2 of 3 |
| D31H/G59L/F106I | no signal | 0 of 3 |
| Y32M/G102F/Y108P | 4.42 | 2 of 3 |
| G50V/W53V/G100A | 5.99 | 2 of 3 |
| T28Q/G50T/W53A | 3.97 | 1 of 3 |
| Y32L/I51A | 3.65 | 1 of 3 |
| T28P/D62R/G102V | 3.95 | 2 of 3 |
| D30S/G100E/Y105E | 3.43 | 3 of 3 |
| A61L/D107P | no signal | 0 of 3 |
| G59N/Y60E/V64Y | no signal | 0 of 3 |
| D31H/S52Y/G104T | no signal | 0 of 3 |
| W53G/G100T/Y108V | no signal | 0 of 3 |
| G26K/Y60M/S63L | 5.39 | 3 of 3 |
| Y60P/D62W/G102L | 4.99 | 2 of 3 |
| I51H/A61N/V64T | no signal | 0 of 3 |
| V99L/Y105L | no signal | 0 of 3 |
| H35P/I58C | 5.49 | 1 of 3 |
| G50L/G56L | no signal | 0 of 3 |
| D31K/G50S/G59R | 4.25 | 1 of 3 |
| G50H/W53E/S57A | no signal | 0 of 3 |
| W53V/A61T/F106H | no signal | 0 of 3 |
| G59A/K65E/Y105K | 4.09 | 3 of 3 |
| H35K/D62K/G104P | 3.94 | 1 of 3 |
| T28M/S63Y/Y108G | 1.29 | 3 of 3 |
| F27E/S52P/I58S | 4.49 | 2 of 3 |
| D30K/H35E/G100N | no signal | 0 of 3 |
| S52P/W53H/D62Q | no signal | 0 of 3 |
| H35F/S52T/G59Y | 4.74 | 2 of 3 |
| F27W/D62L/Y108A | no signal | 0 of 3 |
| A33M/A61L/Y108M | 1.93 | 3 of 3 |
| S55C/V99Y/G104L | no signal | 0 of 3 |
| F29D/H35Q/V64P | no signal | 0 of 3 |
| Y32D/S52T/W53I | 5.25 | 2 of 3 |
| G26F/T28H/G50A | no signal | 0 of 3 |
| N54G/I58G/G59K | 3.28 | 1 of 3 |
| F27Q/G102R/Y105W | no signal | 0 of 3 |
| A33Q/M34L | 4.15 | 3 of 3 |

The first 6 variants above that were never detected:

| changes | log10 Kd (nM), mean | replicates with signal |
|---|---|---|
| D31E/V64L/Y105I | no signal | 0 of 3 |
| H35Y/W53A/I58H | no signal | 0 of 3 |
| Y60R/D62M/K65H | no signal | 0 of 3 |
| D30C/H35Y/S63H | no signal | 0 of 3 |
| T28N/G50M/D107I | no signal | 0 of 3 |
| G26H/D31C/S63G | no signal | 0 of 3 |